Test results reported in patent publication US7271168B2, “Piperazine derivatives having SST1 antagonistic activity” (Novartis AG, priority 2001, dated 2007).

Sequences of proteins named here, by UniProt entry; tags and fusion partners are left off. A change or cut given only in a name is not applied to a line headed by its entry.
UniProt P30872: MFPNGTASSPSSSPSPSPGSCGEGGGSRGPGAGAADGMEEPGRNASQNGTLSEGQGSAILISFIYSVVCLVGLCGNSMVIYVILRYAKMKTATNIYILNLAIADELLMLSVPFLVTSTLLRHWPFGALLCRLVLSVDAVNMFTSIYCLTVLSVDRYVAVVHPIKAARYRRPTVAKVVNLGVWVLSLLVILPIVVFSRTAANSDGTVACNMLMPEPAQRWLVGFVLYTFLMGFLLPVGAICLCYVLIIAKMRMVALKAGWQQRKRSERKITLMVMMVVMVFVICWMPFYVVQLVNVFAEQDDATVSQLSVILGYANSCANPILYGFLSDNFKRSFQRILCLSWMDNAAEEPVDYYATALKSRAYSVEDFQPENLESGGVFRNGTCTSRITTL

Biological target: Somatostatin sst1 receptors (Homo sapiens, UniProt P30872)

CN(CCC(=O)N1CCN(c2ccc(F)c(F)c2)CC1)CCC1c2ccccc2Oc2ccccc21 [Compound A, 1-[4-(3,4-difluoro-phenyl)-piperazin-1-yl]-3-{methyl-[2-(9H-xanthen-9-yl)-ethyl]-amino}-propan-1-one]
selectivity among somatostatin receptors: sst1 selective
